Source: patent US11524011B2, “H3K27 demethylase inhibitors in pediatric and juvenile osteoporosis” (THE JOHNS HOPKINS UNIVERSITY, priority 2017, dated 2022)

System: BALB/c mice
[1] = MPS daily for different time periods, vs vehicle

C[C@H]1C[C@@H]2[C@H]([C@@H](O)C[C@@]3(C)[C@H]2CC[C@]3(O)C(=O)CO)[C@@]2(C)C=CC(=O)C=C12 [MPS, methylprednisolone]
numbers of SA-βGal+ cells per mm^2 tissue area in primary spongiosa (MPS daily for 2 weeks, four-week-old mice, vs control): Increased
senescent blood vessel endothelial cells (SA-βGal expression in CD144+ cell population, flow cytometry) (MPS daily for 2 weeks, femoral metaphysis, vs control mice): significantly more
SA-βGal staining in Emcn+ blood vessel endothelial cells in femoral metaphysis sections (MPS daily for 2 weeks, vs control): increased
p16 staining in Emcn+ blood vessel endothelial cells (MPS daily for 2 weeks, vs controls): significant increase
Emcn+ CD31+ H-type vessels: percentage of CD31+Emcn+ cells isolated from femoral metaphysis (flow cytometry) [1]: decreased
blood vessels: Emcn+ CD31+ cells in femoral primary spongiosa (immunofluorescence) [1]: decreased after MPS treatment in a time-dependent manner
